Experiment: Pharmacokinetics in rats, i.v.
Assay type: in vivo
Conditions: rat, 1 μmol/kg i.v., n = 5
Experimental: SD Rats were randomly divided into three groups (n = 5). […] All blood samples were immediately centrifuged at 5000 rpm for 5 min at room temperature, and the plasma obtained was stored at −20 °C before analysis. To the rat plasma (100 μL) was added 10 μL internal standard (80 ~ 100 ng/ml Carbamazepine), followed by mixing with 200 μL methanol with vortexing for 1 min. At this stage, certain amounts of proteins may precipitate out, thus this mixture was centrifuged at 12,000 rpm for 5 min at room temperature to achieve complete separation. The 20 μl supernatant was injected into a HPLC (Symbiosis, Spark, Holland; column: 50 mm × 2.1 mm, 5 μm, Agilent Eclipse Plus) –MS/MS system (ABI 4000 Q-Trap triple quadrupole mass spectrometer) equipped with electrospray ionization (ESI) source in the positive ion mode (Foster City, USA). The HPLC elution gradient was as follows: 0–0.5 min, 5–5% (B); 0.5–3 min, 5–95% (B); 3–4 min, 95–95% (B); 4–4.06 min, 95–5% (B); 4.06–6 min, 5–5% (B); the flow-rate was 0.4 ml/min; A was 0.1% formic acid/Waterl, B was 0.1% formic acid/methanol. […]
The statistical significance of the difference among pharmacokinetic parameters was determined using the mean comparison Student’s t-test, and the resulting P values were lower than 0.05, which is considered to be statistically significant.

Work on `CC[C@H](C)[C@H](NC(=O)[C@H](CCC(=O)O)NC(=O)[C@H](CCC(=O)O)NC(=O)[C@H](Cc1ccccc1)NC(=O)[C@H](CC(=O)O)NC(=O)CNC(=O)[C@H](CC(N)=O)NC(=O)CNC(=O)CNC(=O)CNC(=O)CNC(=O)[C@@H]1CCCN1C(=O)[C@H](CCCNC(=N)N)NC(=O)[C@@H]1CCCN1C(=O)[C@H](N)Cc1ccccc1)C(=O)N1CCC[C@H]1C(=O)N[C@@H](CCC(=O)O)C(=O)N[C@@H](CCC(=O)O)C(=O)N[C@@H](Cc1ccc(O)cc1)C(=O)N[C@@H](CC(C)C)C(=O)O` [Hirulog-1, reference compound] yielded a half-life (SD, plasma, iv, 1 umol/kg) of less than 16 min and a T1/2 of 15.1 ± 1.3 min.
